The values below are quoted from earlier work in article PMC2765576 (Bioconjugate chemistry, 2009).

The chains behind the UniProt entries cited, without tags or fusion partners. Residues count along the entry.
UniProt P05106, 27-788: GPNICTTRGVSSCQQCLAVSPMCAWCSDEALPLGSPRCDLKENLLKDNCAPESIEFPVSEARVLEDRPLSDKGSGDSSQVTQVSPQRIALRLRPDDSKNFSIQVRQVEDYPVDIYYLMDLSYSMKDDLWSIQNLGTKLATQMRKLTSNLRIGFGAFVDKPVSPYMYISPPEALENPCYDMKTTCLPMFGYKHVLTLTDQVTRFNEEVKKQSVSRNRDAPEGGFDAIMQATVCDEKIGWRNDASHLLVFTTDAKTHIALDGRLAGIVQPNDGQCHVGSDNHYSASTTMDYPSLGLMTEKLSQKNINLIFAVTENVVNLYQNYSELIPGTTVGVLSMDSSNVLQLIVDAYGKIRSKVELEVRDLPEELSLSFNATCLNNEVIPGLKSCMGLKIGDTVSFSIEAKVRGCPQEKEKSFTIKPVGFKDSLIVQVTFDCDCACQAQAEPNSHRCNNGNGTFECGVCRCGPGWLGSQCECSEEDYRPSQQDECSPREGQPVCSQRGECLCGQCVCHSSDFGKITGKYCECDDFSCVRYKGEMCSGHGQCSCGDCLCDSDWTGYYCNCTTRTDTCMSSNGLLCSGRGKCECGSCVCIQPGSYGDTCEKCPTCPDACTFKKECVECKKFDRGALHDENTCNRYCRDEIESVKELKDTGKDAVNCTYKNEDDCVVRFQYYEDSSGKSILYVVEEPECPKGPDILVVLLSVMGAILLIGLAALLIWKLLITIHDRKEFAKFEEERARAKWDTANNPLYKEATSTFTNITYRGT
UniProt P06756, 891-1048 partner limits assumed: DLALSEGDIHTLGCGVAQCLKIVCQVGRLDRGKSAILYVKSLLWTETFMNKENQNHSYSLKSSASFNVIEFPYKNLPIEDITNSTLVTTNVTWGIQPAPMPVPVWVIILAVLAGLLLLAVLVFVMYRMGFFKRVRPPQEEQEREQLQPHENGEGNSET
UniProt P06756, 31-889 limits assumed: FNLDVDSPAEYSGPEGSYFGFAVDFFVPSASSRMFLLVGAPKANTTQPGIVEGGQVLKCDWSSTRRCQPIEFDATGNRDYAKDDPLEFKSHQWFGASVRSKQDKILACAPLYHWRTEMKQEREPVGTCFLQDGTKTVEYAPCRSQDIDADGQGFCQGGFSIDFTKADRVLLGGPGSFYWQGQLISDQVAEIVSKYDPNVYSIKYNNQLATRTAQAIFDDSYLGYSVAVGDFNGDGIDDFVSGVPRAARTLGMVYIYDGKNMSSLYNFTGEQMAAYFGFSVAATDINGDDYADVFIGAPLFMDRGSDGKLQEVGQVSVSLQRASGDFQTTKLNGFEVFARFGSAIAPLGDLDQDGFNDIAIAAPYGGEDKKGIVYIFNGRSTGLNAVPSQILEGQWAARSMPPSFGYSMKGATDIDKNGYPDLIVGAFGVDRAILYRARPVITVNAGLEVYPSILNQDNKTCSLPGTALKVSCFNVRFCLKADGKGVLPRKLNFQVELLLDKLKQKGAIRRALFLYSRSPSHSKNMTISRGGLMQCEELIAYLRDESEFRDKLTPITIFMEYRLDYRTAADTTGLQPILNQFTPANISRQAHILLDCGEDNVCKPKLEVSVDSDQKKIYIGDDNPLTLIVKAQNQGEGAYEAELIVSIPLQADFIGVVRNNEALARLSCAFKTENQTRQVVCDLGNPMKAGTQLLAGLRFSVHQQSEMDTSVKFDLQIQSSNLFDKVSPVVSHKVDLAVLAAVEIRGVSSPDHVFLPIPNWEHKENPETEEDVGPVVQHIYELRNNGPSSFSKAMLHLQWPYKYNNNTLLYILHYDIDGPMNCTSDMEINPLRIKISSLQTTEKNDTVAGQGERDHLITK

Broadly, the IC50 is the point on the concentration scale where inhibition reaches its midpoint.

The target of the data set is integrin αvβ3 (Homo sapiens, UniProt P05106+P06756). The note with it: corresponding literature value for unlabeled cyclic peptide; ref [12].

With “cyclo(RGD^DYK): unlabeled cyclic RGD peptide, IC50 quoted from ref 12”, the half-maximal inhibitory concentration (IC50) was 230 nM.
